Measurements taken from publication PMC4628873 (Bioorganic & medicinal chemistry letters, 2015).

Amino acid sequences for entries named in this document (tags omitted).
UniProt P28223, whole entry: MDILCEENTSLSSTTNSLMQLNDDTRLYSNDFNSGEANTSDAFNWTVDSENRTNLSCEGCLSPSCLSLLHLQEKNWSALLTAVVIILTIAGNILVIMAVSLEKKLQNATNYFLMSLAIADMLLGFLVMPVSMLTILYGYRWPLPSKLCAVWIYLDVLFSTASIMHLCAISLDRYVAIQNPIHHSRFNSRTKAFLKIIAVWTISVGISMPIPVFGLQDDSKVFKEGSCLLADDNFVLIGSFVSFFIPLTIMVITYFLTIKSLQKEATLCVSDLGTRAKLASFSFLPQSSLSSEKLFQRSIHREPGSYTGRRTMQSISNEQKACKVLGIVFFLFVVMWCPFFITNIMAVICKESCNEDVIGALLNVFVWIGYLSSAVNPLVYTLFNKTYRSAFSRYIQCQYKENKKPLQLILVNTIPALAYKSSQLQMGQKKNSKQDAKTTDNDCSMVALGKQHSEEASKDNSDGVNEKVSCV

How the values were obtained:
[1] = target: 5-HT2A receptor (Homo sapiens, UniProt P28223); assay: FLIPR calcium mobilization functional assay, human 5-HT2A receptor; conditions: for Selectivity α1A/5-HT2A: ratio of Ke α1A / Ke 5-HT2A; for fold lower 5-HT2A receptor affinity than 5: Ke compared with compound 5
[2] = target: T1, α1A adrenergic receptor (Homo sapiens, UniProt P35348); assay: FLIPR calcium mobilization functional assay, α1A adrenergic receptor
T1 sequence (P35348 1-466): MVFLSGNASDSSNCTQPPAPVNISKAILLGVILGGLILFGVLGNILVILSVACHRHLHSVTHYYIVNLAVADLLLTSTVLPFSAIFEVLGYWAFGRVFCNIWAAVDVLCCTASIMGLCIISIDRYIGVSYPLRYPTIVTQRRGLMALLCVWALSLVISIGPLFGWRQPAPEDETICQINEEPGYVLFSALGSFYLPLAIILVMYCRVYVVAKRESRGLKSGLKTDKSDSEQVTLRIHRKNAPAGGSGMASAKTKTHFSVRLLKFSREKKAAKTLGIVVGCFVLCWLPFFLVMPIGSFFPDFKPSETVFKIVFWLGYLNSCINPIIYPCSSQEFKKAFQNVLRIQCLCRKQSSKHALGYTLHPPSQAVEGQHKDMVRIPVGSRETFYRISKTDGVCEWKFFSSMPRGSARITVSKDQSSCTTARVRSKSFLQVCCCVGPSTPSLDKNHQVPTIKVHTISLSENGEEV

| Structure (SMILES) | Kb [1] [nM] | Selectivity α1A/5-HT2A [1] | fold lower 5-HT2A receptor affinity than 5 [1] [fold] | Kb [2] [nM] |
| --- | --- | --- | --- | --- |
| C=CCOc1c(OC)cc2c3c1-c1cc4c(cc1CC3N(C)CC2)OCO4 (stereo not shown) [Compound 5] | 70 ± 15 | >143 |  |  |
| C/C=C/COc1c(OC)cc2c3c1-c1cc4c(cc1CC3N(C)CC2)OCO4 (stereo not shown) [Compound 8a] | 723 ± 68 |  |  |  |
| C=C(C)COc1c(OC)cc2c3c1-c1cc4c(cc1CC3N(C)CC2)OCO4 (stereo not shown) [Compound 8b] | 172 ± 71 | > 58 | 2 |  |
| COc1cc2c3c(c1OCC=C(C)C)-c1cc4c(cc1CC3N(C)CC2)OCO4 (stereo not shown) [Compound 8c] | 2070 | > 5 | 30 |  |
| CC#CCOc1c(OC)cc2c3c1-c1cc4c(cc1CC3N(C)CC2)OCO4 (stereo not shown) [Compound 8d] | 2690 |  |  | 557 ± 111 |
| C=CCCCOc1c(OC)cc2c3c1-c1cc4c(cc1CC3N(C)CC2)OCO4 (stereo not shown) [Compound 8f] | > 10000 |  |  | > 10000 |
